Patent US8748411B2, “Antineoplastic compounds and pharmaceutical compositions thereof” (Centro de Ingenieria Genetica y Biotechnologia, priority 2005, dated 2014)

Tested on: CK2 optimized consensus substrate sequence RRREEETEEE
Test: In vitro CK2 phosphorylation of the optimized consensus substrate peptide […], filter radioactivity
Type: biochemical
Details: read-out: Inhibitory concentration 50 (IC50); substrate peptide preincubated 1 h at 37° C.; reaction 10 minutes at 37° C., 100 μM ATP

NNC(=O)NP(=O)(NC(=O)NN)NC(=O)NN
IC50: 73 nM
